Source: patent US8263074B2, “Fibroblast growth factor receptor-1 inhibitors and methods of treatment thereof” (ImClone LLC, priority 2003, dated 2012)

The chains behind the UniProt entries cited, without tags or fusion partners. Residues count along the entry.
UniProt P21802, 481-770 limits assumed: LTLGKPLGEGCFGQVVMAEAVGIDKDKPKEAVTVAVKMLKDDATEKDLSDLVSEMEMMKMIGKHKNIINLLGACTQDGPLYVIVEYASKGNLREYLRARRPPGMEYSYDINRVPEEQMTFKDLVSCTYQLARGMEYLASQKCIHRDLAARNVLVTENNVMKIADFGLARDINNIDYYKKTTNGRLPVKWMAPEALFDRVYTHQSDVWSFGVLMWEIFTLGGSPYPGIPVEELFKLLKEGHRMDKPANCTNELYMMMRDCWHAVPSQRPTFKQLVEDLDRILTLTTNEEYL
UniProt P11362, 478-767 limits assumed: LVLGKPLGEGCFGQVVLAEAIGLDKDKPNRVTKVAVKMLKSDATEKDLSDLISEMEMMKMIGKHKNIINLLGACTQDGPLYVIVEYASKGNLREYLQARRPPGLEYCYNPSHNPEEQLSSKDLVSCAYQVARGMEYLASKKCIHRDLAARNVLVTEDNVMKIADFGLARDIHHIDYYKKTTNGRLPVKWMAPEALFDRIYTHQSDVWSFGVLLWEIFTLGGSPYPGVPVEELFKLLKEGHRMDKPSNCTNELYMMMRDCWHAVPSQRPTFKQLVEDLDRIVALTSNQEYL
UniProt P22607, 472-761 limits assumed: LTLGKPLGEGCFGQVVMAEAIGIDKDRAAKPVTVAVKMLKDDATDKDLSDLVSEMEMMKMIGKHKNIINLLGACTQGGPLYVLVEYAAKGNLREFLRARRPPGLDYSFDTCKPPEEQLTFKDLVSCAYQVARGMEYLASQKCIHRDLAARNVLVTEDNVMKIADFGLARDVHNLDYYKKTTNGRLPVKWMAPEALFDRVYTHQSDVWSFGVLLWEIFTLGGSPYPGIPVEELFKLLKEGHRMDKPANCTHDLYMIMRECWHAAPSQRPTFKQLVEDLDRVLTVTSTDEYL
UniProt P22455, 467-755 limits assumed: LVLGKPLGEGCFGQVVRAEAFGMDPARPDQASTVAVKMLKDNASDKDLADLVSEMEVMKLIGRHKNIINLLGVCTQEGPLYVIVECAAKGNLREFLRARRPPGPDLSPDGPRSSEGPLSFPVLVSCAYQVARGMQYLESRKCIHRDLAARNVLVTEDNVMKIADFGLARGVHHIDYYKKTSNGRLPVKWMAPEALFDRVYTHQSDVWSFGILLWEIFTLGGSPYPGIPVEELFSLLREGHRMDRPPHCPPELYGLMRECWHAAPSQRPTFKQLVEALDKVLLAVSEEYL

Experiments:
Experiment in all cases: FGFR kinase enzymatic assay (polyE-Y phosphorylation)
[1] = molecular target: FGFR-2 (Homo sapiens, UniProt P21802); conditions: read-out: IC50, FGFR-2 kinase enzymatic activity; in vitro enzymatic assay
[2] = molecular target: FGFR-1 (Homo sapiens, UniProt P11362); format: biochemical; conditions: read-out: IC50, FGFR-1 kinase enzymatic activity; in vitro enzymatic assay
[3] = molecular target: FGFR-3 (Homo sapiens, UniProt P22607); format: biochemical; conditions: read-out: IC50, FGFR-3 kinase enzymatic activity; in vitro enzymatic assay
[4] = molecular target: FGFR-4 (Homo sapiens, UniProt P22455); format: biochemical; conditions: read-out: IC50, FGFR-4 kinase enzymatic activity; in vitro enzymatic assay

COc1cc(OC)cc(-c2cc3cnc(N)nc3nc2NC(=O)NC(C)(C)C)c1 showed an IC50 [1] of 60 nM, an IC50 [2] of 18 nM and an IC50 [3] of 20 nM. The IC50 [4] was 440 nM.
